Experiments:
[1] = molecular target: full length human N-WASP (Myc-N-WASP-TAP) (human); experiment: cell-based or functional assay
[2] = molecular target: full length human WASP (Myc-WASP-TAP) (human); experiment: cell-based or functional assay

| Substance | Barbed ends % of max. (after subtracting baseline) [1] | Barbed ends, nM (pyrene-actin polymerization assay) [1] | EC50, nM (activation of actin polymerization) [1] | acceleration of actin polymerization (pyrene-actin assay) [1] | Barbed ends % of max. (after subtracting baseline) [2] | Barbed ends, nM (pyrene-actin polymerization assay) [2] | EC50, nM (activation of actin polymerization) [2] | acceleration of actin polymerization (pyrene-actin assay) [2] |
| --- | --- | --- | --- | --- | --- | --- | --- | --- |
| N_GST_tev_Nck1 (bacterial GST tagged Nck1 protein) | 75% | 3.4 nM | 11 nM | 13 fold | 94% | 4 nM | 10 nM | 13 fold |
| N_GST_tev_Rac1 GTP (bacterial GST tagged Rac1 protein) (enzyme) | – | – | 31 nM | – | – | – | 80 nM | – |
